Test results published in patent US8906868B2, “Aminoglycoside derivatives” (Rempex Pharmaceuticals, Inc., priority 2010, dated 2014).

Tested on: rats
Experiment: Nephrotoxicity of test compounds in rats
Conditions: 300 mg/kg/day, once daily subcutaneous

Substance: Gentamicin C1a
- Histopathology Results After 14 days of Dosing: 4/4 Died
